For 1 molecule, max response, negative = inhibition results are on record in PubChem BioAssay AID504847 (National Center for Advancing Translational Sciences (NCATS), 2011).

Chains of the proteins cited; added tags and fusions are not shown.
UniProt P11473, whole entry: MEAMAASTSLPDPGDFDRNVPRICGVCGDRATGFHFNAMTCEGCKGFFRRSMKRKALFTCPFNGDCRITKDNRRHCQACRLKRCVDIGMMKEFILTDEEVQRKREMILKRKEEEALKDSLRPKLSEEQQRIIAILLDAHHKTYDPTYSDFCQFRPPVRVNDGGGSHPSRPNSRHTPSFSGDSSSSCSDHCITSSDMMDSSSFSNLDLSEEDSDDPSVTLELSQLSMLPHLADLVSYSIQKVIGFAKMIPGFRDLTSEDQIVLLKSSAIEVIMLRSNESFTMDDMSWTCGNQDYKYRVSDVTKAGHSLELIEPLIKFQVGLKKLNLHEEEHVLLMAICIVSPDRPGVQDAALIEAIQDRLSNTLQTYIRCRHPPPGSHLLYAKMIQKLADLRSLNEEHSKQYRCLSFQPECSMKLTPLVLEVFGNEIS

The entries are a selection whose mix differs from that of the whole data set. Results filed as inconclusive are left out. Active and inactive are the calls of the source. The call rests on the fitted dose curve; in most records, active means well fitted inhibition curve with a large enough effect; inconclusive means small, poorly fitted or top-dose-only effect, or another doubt; inactive means no such curve, though single readings can be large or run the other way.
On the % scale 0 is the no-effect control and ±100 the full control effect.

The assay addresses Vitamin D3 receptor (Homo sapiens) (UniProt P11473). Briefly: Inhibitors of the vitamin D receptor (VDR): qHTS. The conditions noted are these: VDR-SRC2-3 peptide fluorescence polarization, 2 h; hits give low values. On the technique in general: In qHTS, concentration-response curves come from the screen itself.
Consider `CCC(=O)N(c1ccccc1)C1(COC)CCN(CCn2nnn(CC)c2=O)CC1`, for which the max response, negative = inhibition was inactive: -18.8%.
